Values of other authors as cited in article PMC3440242 (Peptides, 2012).

Sequences of proteins named here, by UniProt entry; tags and fusion partners are left off. Residues count along the entry.
UniProt P10082, 3-36: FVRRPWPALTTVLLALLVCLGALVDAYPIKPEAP
UniProt P49146, whole entry: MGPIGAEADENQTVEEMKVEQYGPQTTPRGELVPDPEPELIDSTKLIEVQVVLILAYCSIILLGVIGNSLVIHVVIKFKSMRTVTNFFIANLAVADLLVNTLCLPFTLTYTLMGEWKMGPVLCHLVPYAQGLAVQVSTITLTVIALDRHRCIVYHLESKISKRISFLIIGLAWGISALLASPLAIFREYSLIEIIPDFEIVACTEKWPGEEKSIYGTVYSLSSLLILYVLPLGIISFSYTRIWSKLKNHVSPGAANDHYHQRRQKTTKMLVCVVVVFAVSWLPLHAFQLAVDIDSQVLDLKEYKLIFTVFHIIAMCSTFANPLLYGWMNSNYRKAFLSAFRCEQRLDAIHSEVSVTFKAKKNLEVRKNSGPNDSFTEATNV

Target: hPYY(3-36) 3-36 (Homo sapiens) (UniProt P10082)
Test: Scatchard
Conditions: cited from earlier work

Substance: neuropeptide Y Y2 receptor (from UniProt P49146)
- Kd: 0.13 nM
